Measured values taken from patent US20230382951A1, “BRAIN PENETRATING PEPTIDES” (BOARD OF REGENTS, THE UNIVERSITY OF TEXAS SYSTEM, priority 2020, published 2023).
Read-outs that look alike come from different tables or passages of the source.

What was measured:
hCMEC/D3 cells [1] = assay: Transcytosis of CX7C peptide presenting M13 phage against hCMEC/D3 cells (transwell); assay type: in vitro ADME, human; details: for transcytosis efficiency (ratio of output to input phage): peptide-presenting M13 phage, 37° C.; for fold difference in transcytosis efficiency, 37° C. versus 4° C.: M13 phage clones
hCMEC/D3 cells [2] = assay type: in vitro ADME, human
[3] = Diffusion of FAM-peptides through Matrigel embedded in multi-channel chamber slide; assay type: physicochemical; details: FAM-labeled peptides, Matrigel microfluidic channel, 12 h
Description: Diffusion of selected peptides through Matrigel embedded in a multi-channel chamber slide. For diffusion through the microchannel p-Slide 0.4 VI chamber (ibidi), each channel was loaded with 30 μL Matrigel and was allowed to gel in a cold room following the manufacturer's recommendations. After gelation, the basal medium was added to hydrate the gel for 10 min. 60 μL of 100 μM of each peptide was added to the inlet reservoir of the chamber, and 60 μL of the basal medium was added to the other reservoir to create sink conditions. Olympus IX83 fluorescence microscope was set-up to image migration of fluorescent peptides in the Matrigel filled channel by recording fluorescent images every 30 min up to 12 h with Hamamatsu ORCA-flash 4.0 camera and 4*UPLSAPO objective using the GFP filter. […]
Next, diffusive transport of the peptides was imaged in a microfluidic chamber slide with embedded Matrigel to exclude possible interactions between the peptides and the polycarbonate membrane insert from the transwell. […] From the time-lapse imaging, the mean diffusivities of the peptides were calculated with a custom Matlab script (Table A) based on the solution to Fick's Second Law^91, presented as equation (1)^92 shown below.
[formula] • where C is the fluorescence intensity of the FAM-labeled peptides, x is the penetration distance at a given time t, and Deff is the effective diffusivity. […]

[4] = Brain distribution of M13 phage conjugated with biotinylated peptides in vivo; parameters: species or system Balb/c mice; details: M13 phage conjugated with biotinylated peptide, i.v., 30 min
[5] = Biodistribution of FAM-labeled peptides in vivo (IVIS imaging); parameters: species or system Balb/c mice; details: FAM-labeled free peptide, i.v., 30 min, P<0.05

Question: For CRTIGPSVC [PC-2], which “transcytosis efficiency (ratio of output to input phage)” value (hCMEC/D3 cells [1]) is on record?
Answer: The value was 2.42×10^−4.

Question: What does the source list for LWRPAAD [Pep-9]?
Answer: fold difference in transcytosis efficiency, 37° C. versus 4° C. (hCMEC/D3 cells [1]): 169 fold; transcytosis efficiency relative to Pep-3 clone (hCMEC/D3 cells [1]; M13 phage, in vitro): about 10 fold

Question: Which “fold difference in transcytosis efficiency, 37° C. versus 4° C.” value (hCMEC/D3 cells [1]) does the source give for NWMINKE [Pep-8] here?
Answer: The value was 402 fold.

Question: Which results are given for TFFYGGSRGKRNNFKTEEY [Angiopep-2]?
Answer: reduction in transcytosis efficiency at 4° C. (hCMEC/D3 cells [2]; FAM-labeled peptides, 4° C. versus 37° C.): 1.4 fold; diffusivity (mean, effective) [3]: 1.17×10^−8 cm^2/s; brain capillary/serum ratio [4]: 1.09 µL/g; brain parenchyma/serum ratio [4]: 0.54 µL/g; brain distribution (total radiant efficiency) vs saline group [5]: effective brain distribution

Question: With THRPPMWSPVWP [PC-1] as the substance, how does the “transcytosis efficiency (ratio of output to input phage)” value (hCMEC/D3 cells [1]) read?
Answer: The value was 5.34×10^−4.

Question: Which “reduction in transcytosis efficiency at 4° C.” value (hCMEC/D3 cells [2]) does the source give for nona-arginine [Pep R9] here?
Answer: The value was about 9 fold.
